The values below are quoted from earlier work in patent publication EP2527351B1, “Lipophosphonoxins, method of their preparation and use” (priority 2011, dated 2012).

Sequences of proteins named here, by UniProt entry; tags and fusion partners are left off. A change or cut given only in a name is not applied to a line headed by its entry.
UniProt P0A6W3: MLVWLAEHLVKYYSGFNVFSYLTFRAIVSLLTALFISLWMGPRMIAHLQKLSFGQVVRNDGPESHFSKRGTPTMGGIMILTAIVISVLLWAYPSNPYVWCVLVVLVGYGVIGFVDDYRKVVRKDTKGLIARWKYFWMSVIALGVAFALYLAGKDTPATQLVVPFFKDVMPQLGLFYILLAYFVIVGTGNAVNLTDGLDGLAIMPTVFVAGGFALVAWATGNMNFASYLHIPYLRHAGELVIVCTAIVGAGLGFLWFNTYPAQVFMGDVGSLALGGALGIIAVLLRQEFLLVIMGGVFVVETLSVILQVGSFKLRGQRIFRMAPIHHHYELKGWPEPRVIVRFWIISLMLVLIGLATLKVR

As usually defined, the IC50 is the concentration at which inhibition is half-maximal.

The series deals with MraY translocase (Escherichia coli, UniProt P0A6W3). To be noted: cited from earlier work.

For the substance liposidomycins [LPMs], the IC50 was 0.05 µg/mL.
